# Experimental data reported in patent US11407979B2, “Intermittent starvation techniques to prolong functional lifetime of liver cells in culture” (Colorado State University Research Foundation, priority 2017, dated 2022).
# Test system: primary human hepatocytes in micropatterned co-cultures (MPCCs)
# [1] = metformin 250 μM for 2 days every week for 4 weeks in serum-containing medium, over time, vs non-starved cultures
smiles,measurement,setting,value
CN(C)C(=N)N=C(N)N [metformin],"albumin production, fold higher than non-starved cultures",[1],1.5 fold
same,"urea production, fold higher than non-starved cultures",[1],1.6 fold
same,functional lifetime of hepatocytes,"metformin treatment in MPCCs over an untreated control, not to the same extent as the starvation protocol",significantly prolonged
